Legend:
[1] = Stability of CA in prepared plasma samples in the autosampler; format: physicochemical, rat; settings: prepared sample, 4 °C for 24 h in the autosampler
Caco-2 cells = experiment: Cell viability by MTT assay; format: cell-based; settings: 100–800 μM, 24 h exposure
P-glycoprotein (Pgp) = P-glycoprotein (Pgp) (Homo sapiens, UniProt P08183); experiment: Caco-2 transport of CA with Pgp inhibitor GF120918; format: in vitro ADME
Caco-2 cell monolayers = experiment: Caco-2 monolayer Transwell permeability of CA; format: in vitro ADME; settings: for Papp A to B / Papp BL to AP (B–A): over 180 min
OATP2B1 = OATP2B1 (Homo sapiens, UniProt O94956); experiment: Caco-2 transport of CA with OATP2B1 inhibitor baicalin; format: in vitro ADME
[2] = Pharmacokinetic study in rats after gavage administration; format: in vivo, Sprague–Dawley rats; settings: 20 mg/kg
[3] = rats; cited from earlier work
[4] = 2 μM GF120918 in apical compartment
[5] = CA 500 μM, 0.05% chitosan in HBSS pH 6.3 in apical compartment
[6] = CA 500 μM, HBSS pH 6.3, without chitosan
[7] = CA 500 μM, monolayer preincubated with 5 mM EDTA for 5 min
[8] = range over the tested concentrations

Amino acid sequences for entries named in this document (tags omitted). A change or cut given only in a name is not applied to a line headed by its entry.
UniProt P08183, whole entry: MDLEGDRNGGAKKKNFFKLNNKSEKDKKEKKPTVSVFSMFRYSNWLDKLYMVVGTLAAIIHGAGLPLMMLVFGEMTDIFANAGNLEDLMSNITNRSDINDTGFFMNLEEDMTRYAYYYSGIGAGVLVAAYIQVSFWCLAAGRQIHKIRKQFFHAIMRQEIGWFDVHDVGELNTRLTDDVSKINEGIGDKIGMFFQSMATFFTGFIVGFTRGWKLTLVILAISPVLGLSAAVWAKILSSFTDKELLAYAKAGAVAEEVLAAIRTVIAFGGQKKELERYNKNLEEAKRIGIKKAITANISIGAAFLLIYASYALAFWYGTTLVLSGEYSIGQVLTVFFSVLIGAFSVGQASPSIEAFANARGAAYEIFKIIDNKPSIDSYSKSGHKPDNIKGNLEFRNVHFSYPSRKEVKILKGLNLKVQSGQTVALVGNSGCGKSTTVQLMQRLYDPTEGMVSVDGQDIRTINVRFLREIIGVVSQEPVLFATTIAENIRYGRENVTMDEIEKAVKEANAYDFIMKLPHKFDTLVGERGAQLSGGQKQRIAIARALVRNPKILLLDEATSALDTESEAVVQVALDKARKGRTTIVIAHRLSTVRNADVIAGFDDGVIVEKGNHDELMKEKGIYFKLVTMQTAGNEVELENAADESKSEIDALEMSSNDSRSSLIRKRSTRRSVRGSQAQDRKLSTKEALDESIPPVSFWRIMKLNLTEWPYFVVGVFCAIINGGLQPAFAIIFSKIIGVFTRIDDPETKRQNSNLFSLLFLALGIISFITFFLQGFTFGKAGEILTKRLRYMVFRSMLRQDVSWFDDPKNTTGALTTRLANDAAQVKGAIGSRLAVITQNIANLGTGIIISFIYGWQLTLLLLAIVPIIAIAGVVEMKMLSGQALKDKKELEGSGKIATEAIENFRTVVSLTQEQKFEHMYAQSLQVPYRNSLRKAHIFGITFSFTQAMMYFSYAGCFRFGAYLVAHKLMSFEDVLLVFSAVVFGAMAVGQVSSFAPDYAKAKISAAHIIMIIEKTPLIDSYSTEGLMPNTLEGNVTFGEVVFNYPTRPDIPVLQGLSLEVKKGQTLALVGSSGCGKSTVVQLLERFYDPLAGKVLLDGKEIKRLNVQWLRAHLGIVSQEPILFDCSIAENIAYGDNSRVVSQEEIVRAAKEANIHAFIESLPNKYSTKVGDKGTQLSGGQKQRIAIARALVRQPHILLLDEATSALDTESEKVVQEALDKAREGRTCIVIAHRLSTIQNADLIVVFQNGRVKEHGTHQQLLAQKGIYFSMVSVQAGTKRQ
UniProt O94956: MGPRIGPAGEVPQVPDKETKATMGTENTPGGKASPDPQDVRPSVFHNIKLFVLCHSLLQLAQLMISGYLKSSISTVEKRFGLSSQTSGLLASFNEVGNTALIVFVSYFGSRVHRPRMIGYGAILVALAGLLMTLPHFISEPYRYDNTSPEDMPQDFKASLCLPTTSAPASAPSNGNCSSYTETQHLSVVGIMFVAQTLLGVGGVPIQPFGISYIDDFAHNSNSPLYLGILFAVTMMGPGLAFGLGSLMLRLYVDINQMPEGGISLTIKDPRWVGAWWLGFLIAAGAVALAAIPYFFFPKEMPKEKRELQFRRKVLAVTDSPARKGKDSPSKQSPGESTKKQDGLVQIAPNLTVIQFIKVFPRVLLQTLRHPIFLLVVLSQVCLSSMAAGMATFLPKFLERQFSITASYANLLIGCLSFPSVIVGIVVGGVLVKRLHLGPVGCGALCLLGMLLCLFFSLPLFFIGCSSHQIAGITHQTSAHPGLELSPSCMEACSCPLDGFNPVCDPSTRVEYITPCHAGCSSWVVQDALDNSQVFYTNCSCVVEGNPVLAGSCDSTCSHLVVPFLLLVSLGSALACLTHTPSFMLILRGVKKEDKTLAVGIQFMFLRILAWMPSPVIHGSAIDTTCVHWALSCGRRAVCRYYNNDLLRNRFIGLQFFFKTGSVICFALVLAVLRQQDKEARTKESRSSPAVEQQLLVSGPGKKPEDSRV

Chicoric acid [CA]
Remaining ([1]; QC 100.0 ng/mL in rat plasma): 102.0% | Remaining ([1]; QC 500.0 ng/mL in rat plasma): 100.6% | Remaining ([1]; QC 2000.0 ng/mL in rat plasma): 99.4% | Cell viability (Caco-2 cells): more than 90% | Increase of Papp A–B after GF120918 treatment (P-glycoprotein (Pgp); 2 μM GF120918): 1.75 fold | Papp A–B after GF120918 treatment (P-glycoprotein (Pgp); [4]): (1.8 ± 0.3) ×10 ^−7 cm/s | Papp B–A after GF120918 treatment (P-glycoprotein (Pgp); [4]): (0.6 ± 0.2) × 10^−7 cm/s | Substrate of p-glycoprotein (P-glycoprotein (Pgp); Caco-2, GF120918): essential substrate | Papp values at the three concentrations (Caco-2 cell monolayers; 100, 200, 500 μM): below 1 × 10^−6 cm/s | Permeability with chitosan relative to pH 6.3 without chitosan (Caco-2 cell monolayers; A–B direction): approximately 3 fold | Efflux ratio Papp (B–A)/Papp (A–B) (Caco-2 cell monolayers; CA 100 μM): 1.2 | Papp A to B (Caco-2 cell monolayers; CA 100 μM, HBSS): (2.1 ± 0.5) ×10^−7 cm/s | Papp BL to AP (B–A) (Caco-2 cell monolayers; CA 100 μM, HBSS): (2.6 ± 0.3) ×10^−7 cm/s | Efflux ratio Papp (B–A)/Papp (A–B) (Caco-2 cell monolayers; CA 200 μM): 1.8 | Papp A to B (Caco-2 cell monolayers; CA 200 μM, HBSS): (8.2 ± 1.9) × 10^−8 cm/s | Papp BL to AP (B–A) (Caco-2 cell monolayers; CA 200 μM, HBSS): (1.5 ± 0.3) × 10^−7 cm/s | Efflux ratio Papp (B–A)/Papp (A–B) (Caco-2 cell monolayers; CA 500 μM): 1.5 | Papp A–B with chitosan treatment (Caco-2 cell monolayers; [5]): (2.1 ± 0.1) ×10 ^−7 cm/s | Papp B–A with chitosan treatment (Caco-2 cell monolayers; [5]): (2.3 ± 0.3) ×10 ^−7 cm/s | Papp A–B at pH 6.3 (Caco-2 cell monolayers; [6]): (6.7 ± 1.2) ×10 ^−8 cm/s | Papp B–A at pH 6.3 (Caco-2 cell monolayers; [6]): (2.5 ± 0.3) ×10 ^−7 cm/s | Papp BL to AP (B–A) (Caco-2 cell monolayers; CA 500 μM, HBSS pH 7.4 (control)): (1.6 ± 0.1) × 10^−7 cm/s | Papp A–B with EDTA treatment (Caco-2 cell monolayers; [7]): (4.5 ± 0.4) ×10 ^−6 cm/s | Papp B–A with EDTA treatment (Caco-2 cell monolayers; [7]): (2.5 ± 0.2) ×10 ^−5 cm/s | Papp B–A relative to A–B at pH 6.3 (Caco-2 cell monolayers; pH 6.3): approximately 3 fold | Efflux ratio with chitosan (Caco-2 cell monolayers; pH 6.3 environment, chitosan): ~1.0 | Papp in the absorption direction (Caco-2 cell monolayers; [8]): 0.082 to 0.21 ×10⁻⁶ cm/s | Papp in the secretory direction (Caco-2 cell monolayers; [8]): 0.15 to 0.26 ×10⁻⁶ cm/s | Change of Papp A–B after baicalin treatment (OATP2B1; 6 μM baicalin): no significant change | Papp B–A after baicalin treatment (OATP2B1; 6 μM baicalin in apical compartment): (0.6 ± 0.1) × 10^−7 cm/s | Substrate of OATP2B1 transporter (OATP2B1; Caco-2, baicalin): essential substrate | AUC0-t [2]: 439.2 ± 123. μg·min/mL | AUC0-∞ [2]: 451.9 ± 136.6 µg·min/mL | CL/F [2]: 35.7 ± 23.8 mL/min/kg | Cmax [2]: 635.8 ± 128.3 ng/mL | Tmax [2]: 5 h | Vd,λz/F [2]: 16.7941 ± 12.6385 L/kg | t1/2,λz [2]: 5.55 ± 1.44 h | Excretion of the prototype in urine, of the dosage [3]: 15.3%

Reference: article PMC9304723 (Heliyon, 2022)
